This note sets out measurements from patent US4882359A, “Azacycloalkane derivatives, absorption promoters containing the derivatives as the effective ingredient and external preparations containing the absorption promoters” (priority 1986, dated 1989).

The series is described as follows: Skin penetration of pindolol from test solution, diffusion cell method. Type of series: in vitro ADME, female hairless mice. The conditions noted are these: 3.0 wt.% test compound, pindolol 0.4 wt.% in ethanol/water.

Regarding “Pyrrolidone carboxylic acid [Pyrolidone carbonic acid]”, the “Cumulative amount of pindolol permeated, 24 hrs later” value (24 hrs) is 1.0 ± 0.0 µM. In addition, for the setting “48 hrs”, the “Cumulative amount of pindolol permeated, 48 hrs later” value stood at 1.9 ± 0.1 µM.
